Experimental findings from US10189807B2, “Tetrahydrothiophene-based GABA aminotransferase inactivators” (Northwestern University, priority 2015, dated 2019) are described below.

By UniProt entry, the sequences of proteins in these tests, tags left out. Residues count along the entry.
UniProt P80147, 29-500 limits assumed: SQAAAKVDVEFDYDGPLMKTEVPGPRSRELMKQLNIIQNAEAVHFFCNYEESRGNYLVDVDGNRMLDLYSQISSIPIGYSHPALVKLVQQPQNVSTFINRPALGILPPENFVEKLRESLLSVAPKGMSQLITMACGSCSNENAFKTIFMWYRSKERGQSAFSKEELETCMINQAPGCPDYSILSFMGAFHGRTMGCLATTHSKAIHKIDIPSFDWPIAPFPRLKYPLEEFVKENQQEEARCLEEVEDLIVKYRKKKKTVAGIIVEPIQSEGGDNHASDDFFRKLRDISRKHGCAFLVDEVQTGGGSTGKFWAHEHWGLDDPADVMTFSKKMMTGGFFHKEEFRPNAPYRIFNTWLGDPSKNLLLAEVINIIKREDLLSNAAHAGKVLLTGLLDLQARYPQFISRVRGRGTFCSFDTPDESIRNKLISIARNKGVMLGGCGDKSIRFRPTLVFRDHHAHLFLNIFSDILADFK

As usually defined, the kinact/KI is the maximal inactivation rate divided by the concentration that gives half of it. One may read the kinact as the rate constant of inactivation at saturating inhibitor.

The target in the test is GABA-AT (Sus scrofa (Pig), UniProt P80147). The experiment in a line: Time-dependent inhibition (inactivation) of GABA-AT, Kitz and Wilson replot. The format is biochemical. Particulars: pH 6.5, 25° C.; for kinact: Kitz and Wilson replot. On the procedure:
GABA-AT was isolated and purified from pig brain by a published procedure.
GABA-AT (17.5 μL) was incubated in the presence of varying concentrations of each compound (70 μL final volume) at 25° C. in 50 mM potassium pyrophosphate buffer solution, pH 6.5, containing 5 mM α-ketoglutarate and 1 mM β-mercaptoethanol. […] The relative enzyme activity was determined by normalizing the rate of increasing absorbance at 340 nm to a control. A Kitz and Wilson replot was used to determine the kinetic constants KI and kinact.

Turning to `Cl.N[C@@H]1CS[C@@H](C(=O)O)C1` [Compound 18, (2R,4S)-4-Aminotetrahydrothiophene-2-carboxylic acid hydrochloride], the kinact/KI is 0.833 M⁻¹ s⁻¹ and the kinact was 0.002 s⁻¹.
The matching figures for `Cl.N[C@@H]1CS[C@H](C(=O)O)C1` [Compound 17, (2S,4S)-4-Aminotetrahydrothiophene-2-carboxylic acid hydrochloride]: 15.5 M⁻¹ s⁻¹ and 0.00283 s⁻¹.
